Laboratory results taken from US10035789B2, “Compounds useful for treating disorders related to RET” (BLUEPRINT MEDICINES CORPORATION, priority 2016, dated 2018).

Protein sequences, listed by entry. Tags and fused reporters are not part of them. Residues count along the entry.
UniProt P07949, 29-1114 V804L: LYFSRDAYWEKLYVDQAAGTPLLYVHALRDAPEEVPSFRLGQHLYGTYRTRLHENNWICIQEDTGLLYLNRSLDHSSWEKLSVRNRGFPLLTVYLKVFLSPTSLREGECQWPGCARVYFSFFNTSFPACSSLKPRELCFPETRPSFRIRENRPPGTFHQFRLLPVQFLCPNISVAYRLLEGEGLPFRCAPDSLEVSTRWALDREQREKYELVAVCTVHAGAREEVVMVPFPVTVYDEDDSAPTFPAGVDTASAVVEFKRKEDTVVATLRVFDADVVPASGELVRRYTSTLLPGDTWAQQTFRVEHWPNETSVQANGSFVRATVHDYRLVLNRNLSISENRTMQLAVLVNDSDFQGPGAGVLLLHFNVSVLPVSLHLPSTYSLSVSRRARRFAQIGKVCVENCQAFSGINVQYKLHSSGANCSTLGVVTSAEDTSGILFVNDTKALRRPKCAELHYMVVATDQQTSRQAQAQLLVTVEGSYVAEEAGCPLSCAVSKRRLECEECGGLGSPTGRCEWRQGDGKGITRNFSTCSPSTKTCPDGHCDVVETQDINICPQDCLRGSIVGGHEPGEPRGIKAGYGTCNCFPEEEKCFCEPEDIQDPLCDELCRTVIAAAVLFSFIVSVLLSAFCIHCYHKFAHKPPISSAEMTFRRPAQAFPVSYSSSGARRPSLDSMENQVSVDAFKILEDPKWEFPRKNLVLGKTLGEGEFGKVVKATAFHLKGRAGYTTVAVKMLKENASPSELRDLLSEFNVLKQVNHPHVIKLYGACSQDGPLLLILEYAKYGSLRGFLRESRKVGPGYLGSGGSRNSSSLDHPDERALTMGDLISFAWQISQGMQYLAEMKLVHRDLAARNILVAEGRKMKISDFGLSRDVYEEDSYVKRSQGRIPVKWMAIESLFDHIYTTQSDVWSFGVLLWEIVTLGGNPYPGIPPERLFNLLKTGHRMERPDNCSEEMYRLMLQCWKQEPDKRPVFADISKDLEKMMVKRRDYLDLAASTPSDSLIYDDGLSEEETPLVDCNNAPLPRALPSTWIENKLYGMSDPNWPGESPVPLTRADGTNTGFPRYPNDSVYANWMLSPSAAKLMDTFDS
UniProt P07949, 29-1114: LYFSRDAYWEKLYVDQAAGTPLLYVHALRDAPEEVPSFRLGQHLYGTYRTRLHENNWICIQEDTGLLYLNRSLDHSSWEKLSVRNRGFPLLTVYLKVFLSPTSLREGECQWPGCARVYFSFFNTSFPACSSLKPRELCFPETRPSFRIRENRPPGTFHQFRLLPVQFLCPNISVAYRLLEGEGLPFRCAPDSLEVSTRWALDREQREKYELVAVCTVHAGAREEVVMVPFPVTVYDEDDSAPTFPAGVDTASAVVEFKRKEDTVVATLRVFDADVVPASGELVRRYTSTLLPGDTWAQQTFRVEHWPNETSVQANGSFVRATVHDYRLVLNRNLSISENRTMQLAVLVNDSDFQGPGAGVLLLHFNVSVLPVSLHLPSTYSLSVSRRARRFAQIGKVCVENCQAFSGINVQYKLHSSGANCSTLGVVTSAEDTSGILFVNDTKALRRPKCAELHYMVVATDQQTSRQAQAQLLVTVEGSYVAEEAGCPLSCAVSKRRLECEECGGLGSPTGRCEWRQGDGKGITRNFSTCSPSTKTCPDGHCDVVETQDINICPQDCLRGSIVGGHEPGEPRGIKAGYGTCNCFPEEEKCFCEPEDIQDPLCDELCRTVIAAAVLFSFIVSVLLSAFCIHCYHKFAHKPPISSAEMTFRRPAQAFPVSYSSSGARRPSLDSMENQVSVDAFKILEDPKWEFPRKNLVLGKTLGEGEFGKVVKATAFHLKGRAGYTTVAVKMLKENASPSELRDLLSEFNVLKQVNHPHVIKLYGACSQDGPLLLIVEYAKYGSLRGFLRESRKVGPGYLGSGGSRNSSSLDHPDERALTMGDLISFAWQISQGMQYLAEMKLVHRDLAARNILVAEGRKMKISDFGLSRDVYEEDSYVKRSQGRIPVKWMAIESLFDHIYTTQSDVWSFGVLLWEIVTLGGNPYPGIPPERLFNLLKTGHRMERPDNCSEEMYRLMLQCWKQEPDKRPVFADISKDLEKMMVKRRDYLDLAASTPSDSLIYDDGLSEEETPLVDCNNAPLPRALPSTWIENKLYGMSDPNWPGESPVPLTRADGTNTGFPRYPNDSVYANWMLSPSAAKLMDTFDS
UniProt P07949, 29-1114 V804M: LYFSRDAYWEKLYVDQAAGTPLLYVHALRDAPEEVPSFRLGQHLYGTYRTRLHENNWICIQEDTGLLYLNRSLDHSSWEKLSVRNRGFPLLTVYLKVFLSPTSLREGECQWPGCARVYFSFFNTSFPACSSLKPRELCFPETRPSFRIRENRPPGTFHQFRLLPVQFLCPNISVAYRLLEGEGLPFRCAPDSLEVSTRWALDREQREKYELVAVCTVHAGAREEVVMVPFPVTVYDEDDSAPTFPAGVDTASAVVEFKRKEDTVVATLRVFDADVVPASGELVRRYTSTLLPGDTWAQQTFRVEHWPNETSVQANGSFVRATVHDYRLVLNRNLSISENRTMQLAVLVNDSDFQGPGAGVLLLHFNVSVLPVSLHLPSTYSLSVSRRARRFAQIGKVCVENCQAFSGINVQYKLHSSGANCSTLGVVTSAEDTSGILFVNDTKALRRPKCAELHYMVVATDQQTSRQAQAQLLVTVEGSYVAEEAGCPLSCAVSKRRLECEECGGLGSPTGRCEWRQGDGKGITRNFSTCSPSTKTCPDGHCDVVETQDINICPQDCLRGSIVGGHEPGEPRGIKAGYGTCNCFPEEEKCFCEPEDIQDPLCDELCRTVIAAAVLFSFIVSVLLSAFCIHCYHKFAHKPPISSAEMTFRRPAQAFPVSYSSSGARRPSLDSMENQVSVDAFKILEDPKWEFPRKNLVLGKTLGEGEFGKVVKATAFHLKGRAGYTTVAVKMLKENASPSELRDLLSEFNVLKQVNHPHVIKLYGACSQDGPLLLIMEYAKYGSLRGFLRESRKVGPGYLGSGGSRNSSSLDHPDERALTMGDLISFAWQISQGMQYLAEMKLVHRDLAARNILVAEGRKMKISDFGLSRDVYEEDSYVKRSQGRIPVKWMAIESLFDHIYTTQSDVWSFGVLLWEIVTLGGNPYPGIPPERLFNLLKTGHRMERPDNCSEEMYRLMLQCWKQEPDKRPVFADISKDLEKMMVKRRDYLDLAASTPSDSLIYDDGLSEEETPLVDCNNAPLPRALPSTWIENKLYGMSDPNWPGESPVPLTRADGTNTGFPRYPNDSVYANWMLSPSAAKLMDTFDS

How the values were obtained:
RET V804L = biological target: T1, RET V804L (Homo sapiens, UniProt P07949, V804L); experiment: RET V804L Gatekeeper Mutant Assay at KM (Caliper electrophoretic mobility shift); settings: wild-type RET inhibitors, Table 2; read-out: RET V804L Biochemical IC50
T1 construct: purchased ProQinase 1096-0000-1

wild type RET = biological target: T2, wild type RET (Homo sapiens, UniProt P07949); experiment: RET Wild Type Assay at KM (Caliper electrophoretic mobility shift); assay type: biochemical
T2 construct: purchased ProQinase 1090-0000-1

RET V804M = RET V804M (Homo sapiens, UniProt P07949, V804M); experiment: RET V804M biochemical assay; settings: wild-type RET inhibitors, Table 2

**Q.** For `CNC(=O)c1cc(Oc2ccc(NC(=O)Nc3ccc(Cl)c(C(F)(F)F)c3)c(F)c2)ccn1` [Regorafenib, reference compound], which IC50 (RET V804L) is on record?
**A.** 0.0298 µM

**Q.** And the IC50 (wild type RET)?
**A.** 0.0051 µM

**Q.** What about the IC50 (RET V804M) of the same compound?
**A.** 0.0467 µM
